## Apparent affinities of Ab-14 variants for a coronavirus HR2 peptide

Reference: Engelhart et al. 2022, doi:10.1038/s41597-022-01779-4. File: FLAb, binding data.

Antigen: PDVDLGDISGINAS, a 14-residue peptide of the SARS-CoV-2 spike HR2 region.

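Variants in AAYL50 differ from the parent at up to three CDR positions; double and triple changes were sampled at random. Affinity was read by AlphaSeq, a pooled yeast mating assay with surface-displayed partners. The frequency of each diploid, read from paired DNA barcodes, reflects how well the two displayed proteins bind. Each replicate has its own calibration line, from reference interactions of the BCL2 family. Mating was done three times.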

Parent scFv Ab-14: VH joined to VL by a 15-residue (Gly4Ser)3 linker. Changes lie in the light chain CDRs alone.
VH: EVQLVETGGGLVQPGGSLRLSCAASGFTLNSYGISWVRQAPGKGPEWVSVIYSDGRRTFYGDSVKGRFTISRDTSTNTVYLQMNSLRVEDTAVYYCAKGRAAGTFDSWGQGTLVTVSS
VL: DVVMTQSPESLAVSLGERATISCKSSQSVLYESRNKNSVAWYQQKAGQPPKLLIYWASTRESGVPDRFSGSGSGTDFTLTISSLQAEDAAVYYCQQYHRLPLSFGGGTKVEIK

Substitutions are numbered in sequence along the VL above, starting at 1 (not Kabat). Numbers give log10(Kd / nM), so 0 is 1 nM and 3 is 1 µM. Smaller is tighter. Averages over replicates are reported, and they cover detected replicates only. A pair that was not seen in that replicate is written "ND"; this usually means weak binding, but a binder can also be missed. Three control strains display no target. For library AAYL50, 18% of the pairings with them gave a signal, with a median of 4.19 and one signal in twenty below 2.99, so weak values seen in few replicates may be background. Also given: how often the same scFv was detected with the empty control strains, with their mean in brackets.

changes,"replicates, log10 nM","mean, log10 nM",control signals
Q27P+S33Y,0.76 / 1.01 / 0.98,0.92,2/9 (4.33)
L30V+N35G+A40F,ND / ND / ND,ND,3/9 (4.19)
S26I+L102M,3.86 / 3.44 / 4.28,3.86,1/9 (4.97)
S25L+S26Q+Y97P,0.89 / 1.26 / 1.42,1.19,0/9
R34H+S62W+S103M,1.02 / 1.24 / 1.25,1.17,2/9 (3.82)
S28I+R34M+S103N,3.23 / 2.79 / 3.24,3.09,2/9 (3.72)
T59A+E61K+R99E,ND / 4.22 / ND,4.22,1/9 (4.33)
S58D+S62Y+Y97H,0.23 / 0.23 / 0.03,0.17,0/9
T59M+S62E+Q95W,1.94 / 1.73 / 2.19,1.95,1/9 (2.86)
Y31K+E32Y+R34N,1.04 / 0.89 / 0.84,0.93,3/9 (4.26)
S33N+S58E+P101V,2.01 / 2.31 / 2.41,2.24,0/9
S25A+E32Y+W56M,0.11 / 0.57 / 0.26,0.31,3/9 (4.62)
V29W+Q95W+R99C,0.94 / 0.86 / 0.67,0.83,3/9 (4.28)
S26W+S28M+A40T,ND / ND / ND,ND,0/9
L30M+K36H+A57Y,ND / 3.41 / ND,3.41,0/9
S28E+S62Y+H98A,0.33 / 0.55 / 0.53,0.47,0/9
N35D+Q95D+Y97E,ND / ND / ND,ND,0/9
S28R+Y97P+L102R,ND / 3.66 / ND,3.66,1/9 (4.16)
K36C+S58I+S103V,2.00 / 1.99 / 2.29,2.09,5/9 (4.53)
Q95P+R99W+P101F,1.17 / 1.21 / 1.41,1.26,2/9 (4.23)
Y31A+A57W+R60T,ND / ND / ND,ND,3/9 (4.22)
S26H+S28H+R34D,1.66 / 1.75 / 1.74,1.72,8/9 (4.59)
S33N+Q95C+Q96K,ND / 4.24 / 5.48,4.86,4/9 (5.59)
S33T+A57L+S62T,1.85 / ND / ND,1.85,0/9
E61I+Q95Y+Q96R,1.20 / 1.27 / 1.49,1.32,0/9
E32N+E61G+P101L,2.62 / 3.35 / 3.82,3.26,1/9 (3.25)
A57K+L100R+S103I,ND / ND / ND,ND,0/9
S28F+A57H+S58V,ND / ND / ND,ND,0/9
H98P+L102N,ND / ND / ND,ND,2/9 (3.82)
A57T+S58M+R60E,5.78 / ND / ND,5.78,4/9 (4.35)
S26N+Y31V+S58C,2.60 / ND / ND,2.60,0/9
T59V+E61T+L102M,5.11 / ND / 2.98,4.05,5/9 (3.91)
N37V+P101Q,ND / 4.07 / ND,4.07,1/9 (4.64)
Y31S+N37G+V39M,4.75 / ND / 4.57,4.66,6/9 (3.90)
Q27R+W56S+S58Y,0.28 / 0.53 / 0.41,0.40,0/9
Q27L+Y31F+S62I,ND / ND / ND,ND,0/9
E32R,2.07 / 2.02 / 2.25,2.11,8/9 (4.26)
Q27Y+E61H+S62K,2.90 / 2.97 / 3.82,3.23,2/9 (4.32)
N35C+N37H+P101E,1.57 / 1.57 / 1.59,1.58,1/9 (4.97)

For reference, 6 entries of the list once more:

changes,"replicates, log10 nM","mean, log10 nM",control signals
H98P+L102N,ND / ND / ND,ND,2/9 (3.82)
S25A+E32Y+W56M,0.11 / 0.57 / 0.26,0.31,3/9 (4.62)
T59A+E61K+R99E,ND / 4.22 / ND,4.22,1/9 (4.33)
R34H+S62W+S103M,1.02 / 1.24 / 1.25,1.17,2/9 (3.82)
Y31S+N37G+V39M,4.75 / ND / 4.57,4.66,6/9 (3.90)
K36C+S58I+S103V,2.00 / 1.99 / 2.29,2.09,5/9 (4.53)

Parent in this assay: reference entry 0.65, copy in this library 1.68.